Measurements as given in patent publication US20090124608A1, “CB2 Receptor Modulators In Neurodegenerative Diseases And Applications Of The Same” (priority 2006, published 2009).

By UniProt entry, the sequences of proteins in these tests, tags left out.
UniProt P34972, whole entry: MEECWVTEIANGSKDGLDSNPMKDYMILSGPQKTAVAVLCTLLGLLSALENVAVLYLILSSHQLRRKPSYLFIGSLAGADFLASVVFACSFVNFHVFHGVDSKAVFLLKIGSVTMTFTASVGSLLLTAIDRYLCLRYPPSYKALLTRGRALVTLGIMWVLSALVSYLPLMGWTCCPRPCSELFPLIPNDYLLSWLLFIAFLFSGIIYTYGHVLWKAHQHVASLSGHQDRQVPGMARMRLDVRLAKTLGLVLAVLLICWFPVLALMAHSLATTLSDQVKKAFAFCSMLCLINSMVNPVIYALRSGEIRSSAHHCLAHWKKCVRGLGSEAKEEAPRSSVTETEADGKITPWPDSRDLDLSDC

Target: CB2 receptors (Homo sapiens, UniProt P34972)
Test: Antagonism of HU-210 G-protein activation in CHO-CB2 membranes
Type: biochemical
Details: HU-210 100 nM

## N-[(1S)-endo-1,3,3-Trimethylbicyclo[2.2.1]heptan-2-yl]-5-(4-chloro-3-methylphenyl)-1-(4-ethoxybenzyl)-pyrazole-3-carboxamide [SR-144528]
  minimal concentration required to completely block HU-210-mediated G-protein activation by CB2 receptors: 3 μM
